We go through one substance from US20220339596A1, “METHOD FOR PRODUCING RADICALS, METHOD FOR S[…], AND CANCER TREATMENT DRUG” (priority 2019, published 2022).

For data set [1] the following is noted: for Chlorine dioxide radicals / Chlorite ions: 14.5 mmol/L sodium chlorite.
The conditions of data set [2]: 14.5 mmol/L sodium chlorite.
[3] abbreviates: 7.25 mmol/L sodium chlorite, pH 7.0, 455 nm LED 157 mW/cm^2 40 minutes.
[4] abbreviates: pH 7.0, 455 nm LED 157 mW/cm^2 40 minutes, n=6.
Where [5] appears, read: pH 7.0, photoirradiation not performed.
Setting [6] is: pH 7.5, 455 nm LED 157 mW/cm^2 40 minutes, n=6.
Where [7] appears, read: pH 8.0, 455 nm LED 157 mW/cm^2 40 minutes, n=6.

Where two headings read alike, the source gives them in different places.

For the substance sodium chlorite, the “molar concentration of chlorine dioxide radicals” value in data set [1] (setting [3]) was 375 µmol/L. The “molar concentration of chlorite ions” value in data set [1] (setting [3]) came out at 350 mmol/L. Further, the Chlorine dioxide radicals was 700 to 800 µmol/L in data set [1] (setting [4]), 0 µmol/L in data set [1] (setting [5]), 500 to 600 µmol/L in data set [1] (setting [6]) and 350 to 450 µmol/L in data set [1] (setting [7]). The Chlorite ions is 7.5 to 8.5 mmol/L in data set [1] (setting [4]), 14.5 mmol/L in data set [1] (setting [5]), 9.5 to 10.5 mmol/L in data set [1] (setting [6]) and 11.0 to 12.0 mmol/L in data set [1] (setting [7]). For the same substance, the “highest ClO2 radical concentration” value in data set [2] (455 nm LED 300 mW/cm^2, 20 minutes from start of irradiation) is listed as “about 0.7 mmol/L”. For the same substance, the oxygen concentration result in data set [2] (455 nm LED 300 mW/cm^2, approximately 20 minutes) is “about 0.6 mmol/L”.
